Experimental data reported in ChEMBL document CHEMBL1139722, “N',2-diphenylquinoline-4-carbohydrazide based NK3 receptor antagonists” (Bioorg Med Chem Lett, 2006).

Chains of the proteins cited; added tags and fusions are not shown.
UniProt P29371, whole entry: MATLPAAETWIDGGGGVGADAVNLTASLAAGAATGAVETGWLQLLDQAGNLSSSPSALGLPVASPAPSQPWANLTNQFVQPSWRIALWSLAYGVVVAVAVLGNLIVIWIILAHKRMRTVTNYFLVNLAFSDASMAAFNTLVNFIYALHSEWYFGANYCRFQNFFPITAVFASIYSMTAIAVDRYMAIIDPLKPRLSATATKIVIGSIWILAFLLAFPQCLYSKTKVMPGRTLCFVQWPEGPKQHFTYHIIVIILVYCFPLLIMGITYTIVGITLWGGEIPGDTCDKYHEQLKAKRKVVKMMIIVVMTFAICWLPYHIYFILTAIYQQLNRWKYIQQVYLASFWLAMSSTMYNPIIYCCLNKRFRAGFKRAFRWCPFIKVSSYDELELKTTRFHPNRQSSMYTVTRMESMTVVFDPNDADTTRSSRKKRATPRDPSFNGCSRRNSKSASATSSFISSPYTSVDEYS

Molecular target: Neuromedin-K receptor (Homo sapiens, UniProt P29371)
Assay: Displacement of [125I]neurokinin B from cloned human NK3 receptor expressed in CHO cells
Assay type: cell-based

- IC50: 2.4 nM (antagonist)
Structure (SMILES): CC[C@H](NC(=O)c1c(O)c(-c2ccccc2)nc2ccccc12)c1ccccc1 [TALNETANT]
